Consider 1 compound from patent US7098199B2 (Sterix Limited, priority 1991, dated 2006).

Chains of the proteins cited; added tags and fusions are not shown. Residues count along the entry.
UniProt P08842, 22-583: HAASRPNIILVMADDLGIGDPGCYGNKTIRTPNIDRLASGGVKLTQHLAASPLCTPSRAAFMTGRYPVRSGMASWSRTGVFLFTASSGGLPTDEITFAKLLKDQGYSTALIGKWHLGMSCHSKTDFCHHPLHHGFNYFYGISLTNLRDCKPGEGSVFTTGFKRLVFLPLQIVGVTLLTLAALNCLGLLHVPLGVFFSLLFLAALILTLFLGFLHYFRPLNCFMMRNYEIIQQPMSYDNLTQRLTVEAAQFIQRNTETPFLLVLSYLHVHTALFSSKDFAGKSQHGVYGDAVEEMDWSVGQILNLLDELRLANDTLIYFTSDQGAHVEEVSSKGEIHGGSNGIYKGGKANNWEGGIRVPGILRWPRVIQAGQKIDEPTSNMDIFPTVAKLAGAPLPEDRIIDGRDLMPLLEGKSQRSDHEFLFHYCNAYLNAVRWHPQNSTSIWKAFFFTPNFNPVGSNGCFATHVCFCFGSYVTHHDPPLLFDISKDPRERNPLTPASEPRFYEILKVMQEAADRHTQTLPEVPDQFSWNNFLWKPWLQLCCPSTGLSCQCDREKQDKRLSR

Structures are written as SMILES.

This data set addresses oestrone sulphatase (Homo sapiens, UniProt P08842). The note with it: concentration tested 20 mM (so in the source).

`C[C@]12CC[C@@H]3c4ccc(OS(N)(=O)=O)c([N+](=O)[O-])c4CC[C@H]3[C@@H]1CCC2=O`: the “% Inhibition (Mean) Placental Microsomes” value amounted to 99.0%.
